In patent US7962204B2 (priority 2001, dated 2011):

Experiments:
[1] = test system: behaviorally-diagnosed psychiatric conditions (DSM categories); design: species or system human; settings: in vivo
[2] = in vivo; cited from earlier work

Row | Structure (SMILES) | use code of agent in 296.90 Mood Disorder NOS [1] | use code of agent in 300.4 Dysthymic Disorder [1] | use code of agent in 316 Psychological Factors Affecting Medical Condition, Hypertensive Disorder NOS [1] | use code of agent in 301.13 Cyclothymic Disorder [1] | use code of agent in 312.39 Trichotillomania [1] | half-life [2] [days] | users being even slower metabolizers [2] [%]
1 | [Li] [Lithium, reference compound] | N | N | – | – | – | – | –
2 | CNCCC(Oc1ccc(C(F)(F)F)cc1)c1ccccc1 (centres unmarked) [FLUOXETINE] | – | – | N | – | – | – | –
3 | CC(C)NCC(O)COc1cccc2ccccc12 (centres unmarked) [PROPRANOLOL] | N | – | N | N | N | – | –
4 | CC(C)NCC(O)COc1ccc(CC(N)=O)cc1 (centres unmarked) [ATENOLOL] | N | N | N | N | N | – | –
5 | CNCCC(Oc1ccc(C(F)(F)F)cc1)c1ccccc1 (centres unmarked) [PROZAC, fluoxetine hydrochloride] | – | – | – | – | – | ≤ 16 | ≤ 7

Where a name gives a salt, the structure may show the parent alone.
